Nrf2 ARE act: Nrf2 pathway activation. AREc32 ARE-luciferase reporter (MCF7-derived line), luminescence, 24 h. Potency, µM (top dose mostly 46.1 µM), without a hit: at the top dose activation, most hits filed as activators. 410,000 compounds, 0.31% hits. AID 624171; further: potency means the concentration at half of the fitted maximal effect; % of control where 0% means no effect; nearly all actives have a fitted effect of over 65% in size
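AREc32_Fluc, 1000 cells/well, OPTI-MEM + 5% FBS, o/n 37 deg C 5% CO2; 23 nL cpd by pin tool, 24 hr; Steady-Glo 30 min RT, luminescence.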
p53 reactivation: restores transcriptional activity of mutant p53; 320,000 compounds, 0.063% hits; Potency, µM (titrated, usually from 92.2 µM), for inactives: top-dose activity change, positive = activation, most hits filed as activators; AID 504706; H1299 p53-A138V BP100-luciferase reporter, luminescence, 24 h; further: potency means the concentration at half of the fitted maximal effect; % of control where 0% means no effect; nearly all actives have a fitted effect of over 45% in size
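H1299 (p53-null), stable ts p53-A138V + BP100-Luc; 1000 cells/well, Opti-MEM/10% FBS; cpd 4 pt, 1:5; 24 h, 37 deg C, 5% CO2; detection reagent 10 min RT; luminescence.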
A549 tox-1: kills or reduces viability of A549 cells in Nrf2 counter-screen; 390,000 compounds, 0.16% hits; A549 ARE-Fluc cells, CellTiter-Fluor viability, 18-24 h; Potency, µM (top dose mostly 46 µM), for inactives: at the highest dose activity change, negative = cytotoxicity, usual class: inhibitors; further: potency means the concentration at half of the fitted maximal effect; on the % scale 0 is the no-effect control and ±100 the full control effect
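A549 ARE-Fluc cells in 5% FBS OPTI-MEM, 5000 cells/well, rested 2 h then exposed to compounds in concentration-response for 18-24 h at 37 °C. Viability by CellTiter-Fluor fluorescence (Ex 405/Em 525) after 30 min; luciferase luminescence (BugLite, 15 min, RT) read afterwards.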
miR-21 reporter: miR-21 reporter, rising signal | AID 2288 | HeLa miR-21 FLuc reporter, luciferase, 48 h | 340,000 tested, under 10 active | Potency, µM (titrated, usually from 38.3 µM), for the others: at the top dose reporter change, positive = more light; active = well fitted rising curve with a large enough effect; inconclusive = small, poorly fitted or top-dose-only effect; inactive = no such curve, though single readings can be large or run the other way;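 also: % of control where 0% means no effect; miR-21 action dims this reporter so a rising signal means less miR-21 action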
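Using DMEM plus 10% FBS, HeLa miR-21-FLuc cells are incubated with test compounds (final up to about 40uM) for 48 hours; firefly luciferase signal is then imaged following reagent-mediated lysis.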
ClpP mod: qHTS Assay for Activators of ClpP | ATP-dependent Clp protease proteolytic subunit (Bacillus subtilis (strain 168)), P80244 | purified B. subtilis ClpP, FRET peptide cleavage, 20 min | Potency, µM (doses to about 57.5 µM), for inactives: at the highest dose activity change, negative = active | 340,000 compounds, 1.9% hits; active means well fitted falling curve with a large enough effect; inconclusive means small, poorly fitted or top-dose-only effect; inactive means no such curve, though single readings can be large or run the other way; further: potency means the concentration at half of the fitted maximal effect; the source files actives as falling curves though it sought activators and does not explain the sign; nearly all actives have a fitted effect of over 65% in size
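FRET quenching reversal measured ClpP activation: 10 microg/mL B. subtilis ClpP at pH 8 with the FRET-FV decapeptide, read at 430 nm after 320 nm excitation. The 20-min minus 0-min signal was scaled between DMSO/no-enzyme wells and ADEP (5.8 microM final).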
Nrf2 block: Nrf2 pathway inhibition. A549 ARE-Fluc reporter, luciferase luminescence, 18-24 h. Potency, µM (doses to about 46 µM), inactives show at the top dose activity change, negative = inhibition, usual class: inhibitors. 360,000 compounds, 2.1% hits; further: potency means the concentration at half of the fitted maximal effect; on the % scale 0 is the no-effect control and ±100 the full control effect; nearly all actives have a fitted effect of over 60% in size
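In this cell-based qHTS, ARE-driven firefly luciferase in A549 cells reports Nrf2 activity; the luminescent signal after BugLite lysis is the measured value, with a prior CellTiter-Fluor read for cell health.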
FLuc counter 3: firefly luciferase inhibition, Nrf2 hit validation. shares compounds with Nrf2 block. purified firefly luciferase, luminescence inhibition. Potency, µM (highest dose often 57.5 µM), for the others: top-dose activity change, negative = inhibition, usual class: inhibitors. 1,400 compounds, 4% hits. AID 720522; further: potency means the concentration at half of the fitted maximal effect; on the % scale 0 is the no-effect control and ±100 the full control effect; nearly all actives have a fitted effect of over 65% in size
A549 tox-2: A549 cytotoxicity, Nrf2 inhibitor counterscreen | shares compounds with Nrf2 block | A549 ARE-Fluc cells, cytotoxicity counterscreen | Potency, µM (highest dose often 46.1 µM), for the others: at the top dose activity change, negative = cytotoxicity, hits mostly inhibitors | 1,400 compounds, 2% hits | AID 720523;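 further: potency means the concentration at half of the fitted maximal effect; cells exposed to compounds for 18 to 24 hours; on the % scale 0 is the no-effect control and ±100 the full control effect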
Nrf2 ARE inh: confirmation of Nrf2 inhibitors in A549 ARE reporter cells; AID 720524; 1,400 compounds, 74% hits; Potency, µM (top dose mostly 46.1 µM), for inactives: top-dose activity change, negative = inhibition, most hits filed as inhibitors; A549 ARE-firefly luciferase reporter, luminescence; shares compounds with Nrf2 block; further: potency means the concentration at half of the fitted maximal effect; on the % scale 0 is the no-effect control and ±100 the full control effect; nearly all actives have a fitted effect of over 65% in size
* marks the source's active call; other numbers are inactive results; ? = inconclusive; / = no result given. Rows were chosen to be rich in hits. Some 3.7% of all compounds tested hit in one or more screens of this group. Unless noted, the call rests on the fitted dose curve; in most records, active means well fitted curve in the direction sought with a large enough effect; inconclusive means small, poorly fitted or top-dose-only effect, or another doubt; inactive means no such curve, though single readings can be large; an effect the other way counts as inactive or inconclusive.

| no. | molecule | Nrf2 ARE act | p53 reactivation | A549 tox-1 | miR-21 reporter | ClpP mod |
| --- | --- | --- | --- | --- | --- | --- |
| 1 | Fc1ccc(-c2noc3ncnc(NCCc4ccc(Cl)cc4)c23)cc1 | -0.8% | / | 2.4% | 17.2% | -4.7% |
| 2 | CSc1ccc(CCNc2ncnc3onc(-c4ccc(Cl)cc4)c23)cc1 | 0.3% | / | 2.6% | 25.5% | -10.8% |
| 3 | COc1ccc2[nH]c3c(c2c1)CCN1C(=O)C(CC(=O)NCc2cccc(C(F)(F)F)c2)C[C@H](C(=O)N2CCCCC2)[C@@]31CCc1ccccc1 (stereo not given in full) | -0.3% | -10.7% | -17.2% | / | -1.1% |
| 4 | CCOc1cc(/C=C(/C#N)c2nc3ccccc3[nH]2)ccc1Oc1ccc([N+](=O)[O-])cn1 | 5.0% | 5.1% | 1.4% | -9.0% | 2.3% |
| 5 | COc1cc(/C=C(/C#N)c2ccc(C)cc2)ccc1Oc1ccc([N+](=O)[O-])cn1 | 0.3% | -0.5% | -1.9% | -0.1% | -2.4% |
| 6 | COc1ccc(NS(=O)(=O)c2ccc(NC(=O)c3ccc(N(C)S(C)(=O)=O)cc3)cc2)c(OC)c1 | 1.7% | -9.4% | -13.6% | 6.5% | 25.1µM* |
| 7 | Cc1ccnc2c1ccc1cccnc12 | 17.9% | ? | ? | / | / |
| 8 | Cn1c(=O)c2c(nc(CN3CCN(c4ccccc4)CC3)n2CCCc2ccccc2)n(C)c1=O | 2.2% | / | -1.9% | / | 19.3% |
| 9 | CCCCn1c(CN2CCN(c3ccccc3)CC2)nc2c1c(=O)n(C)c(=O)n2C | 0.1% | -2.0% | ? | 1.5% | 0.8% |
| 10 | COc1ccc(Cn2c(C(=O)O)c(CNC3CCCCC3)c3ccc(C)cc32)cc1 | 4.1% | / | ? | 2.8% | -6.6% |

| no. | Nrf2 block | FLuc counter 3 | A549 tox-2 | Nrf2 ARE inh |
| --- | --- | --- | --- | --- |
| 1 | ? | / | / | / |
| 2 | 9.2µM* | 1.9% | -3.1% | ? |
| 3 | 6.51µM* | -2.3% | -26.7% | 20.6µM* |
| 4 | ? | / | / | / |
| 5 | 2.91µM* | -11.6% | 3.4% | ? |
| 6 | 1.84µM* | -9.4% | -4.3% | 2.59µM* |
| 7 | ? | -17.1% | ? | / |
| 8 | 7.8% | / | / | / |
| 9 | 4.11µM* | 2.4% | -12.4% | 14.6µM* |
| 10 | -11.9% | / | / | / |

(further entries)
| no. | molecule | Nrf2 ARE act | p53 reactivation | A549 tox-1 | miR-21 reporter | ClpP mod |
| --- | --- | --- | --- | --- | --- | --- |
| 11 | Clc1ccc(OCCN2CCN(c3ncnc4sccc34)CC2)cc1 | -0.7% | -10.6% | -4.7% | 22.9% | 1.5% |
| 12 | CCOc1ccc2[nH]c(=O)c(CN(Cc3ccco3)C(CC)c3nnnn3Cc3ccccc3)cc2c1 (stereo not given) | 4.1% | 21.0% | ? | -25.9% | ? |
| 13 | CCC(c1nnnn1Cc1ccccc1)N(Cc1ccccc1)Cc1cc2cc(C)ccc2[nH]c1=O (stereo not given) | / | / | ? | / | ? |
| 14 | Cc1sc2ncnc(NCCc3ccc(S(N)(=O)=O)cc3)c2c1C | 6.9% | -7.3% | -20.3% | 14.9% | -2.7% |
| 15 | Cc1ccc(S(=O)(=O)Nc2ncnc3sc(C)c(C)c23)cc1 | -0.2% | 0.8% | 1.0% | / | -1.0% |
| 16 | NS(=O)(=O)c1ccc(CCNc2ncnc3sccc23)cc1 | 0.2% | -2.3% | -25.1% | 18.0% | -4.0% |
| 17 | COC(=O)CCN(C(=O)C1CCN(S(=O)(=O)c2c(C)noc2/C=C/c2ccccc2F)CC1)c1ccccc1 | 19.4% | / | 2.1% | -0.4% | -10.0% |
| 18 | O=S(=O)(NCc1ccncc1)c1ccc(Br)s1 | -0.2% | -7.2% | -23.8% | 11.8% | -0.6% |
| 19 | Cc1ccc(S(=O)(=O)NCc2ccncc2)cc1C | -0.7% | -4.9% | -6.5% | 12.5% | / |
| 20 | COc1cc(S(=O)(=O)NCc2ccncc2)ccc1Br | -0.7% | -11.3% | -15.5% | 13.9% | -16.0% |

| no. | Nrf2 block | FLuc counter 3 | A549 tox-2 | Nrf2 ARE inh |
| --- | --- | --- | --- | --- |
| 11 | 0.259µM* | 2.1% | -6.1% | 0.461µM* |
| 12 | ? | / | / | / |
| 13 | 4.11µM* | 0.3% | -28.0% | ? |
| 14 | 2.31µM* | -0.2% | -10.8% | 6.51µM* |
| 15 | ? | / | / | / |
| 16 | 1.64µM* | -1.4% | 2.1% | ? |
| 17 | / | / | / | / |
| 18 | 1.46µM* | -0.6% | -4.4% | 1.46µM* |
| 19 | 2.31µM* | -1.8% | -1.3% | 2.06µM* |
| 20 | 3.26µM* | -2.1% | -1.8% | 3.66µM* |

(continued)
| no. | molecule | Nrf2 ARE act | p53 reactivation | A549 tox-1 | miR-21 reporter | ClpP mod |
| --- | --- | --- | --- | --- | --- | --- |
| 21 | CNC(=O)c1cc(S(=O)(=O)NCc2ccncc2)ccc1OC | -0.1% | -4.8% | 4.7% | 0.2% | -0.2% |
| 22 | COc1ccc(S(=O)(=O)NCc2cccnc2)cc1Br | 0.1% | -1.2% | -6.6% | 14.2% | -0.3% |
| 23 | COc1ccccc1CCNC(=O)C(=O)NCC(c1ccco1)S(=O)(=O)c1ccc(C)cc1 (stereo not given) | 2.0% | / | -3.9% | 21.1% | 1.4% |
| 24 | COc1ccc(C)cc1NC(=O)CSc1ccc(-c2sc(C)nc2C)nn1 | -0.4% | 10.2% | -20.4% | -10.3% | 0.0% |
| 25 | COc1ccc(C)cc1NC(=O)CSc1ccc(-c2ccccn2)nn1 | 6.5% | 9.7% | 1.6% | 5.2% | -7.8% |
| 26 | Cc1cccc(NC(=O)CSc2ccc(-c3ccccn3)nn2)c1 | 0.3% | / | -5.3% | -5.6% | 1.1% |
| 27 | CCOC(=O)N1CCc2c(sc3c2c(=O)n(-c2ccc(Cl)cc2)c(=O)n3Cc2cccc(OC)c2)C1 | 0.5% | / | 2.9% | 0.2% | -3.2% |
| 28 | COc1ccc(OCC(=O)NC2CC(=O)N(c3cccc(OC)c3)C2)cc1 (stereo not given) | 3.0% | / | 4.7% | 0.1% | -0.3% |
| 29 | O=C1CCCCCN1C(=O)c1ccccc1 | -0.6% | / | -2.0% | / | / |
| 30 | CC(C)(C)c1ccc(C(=O)N2CCCCCC2=O)cc1 | -1.7% | -21.7% | -7.5% | ? | -1.2% |
| 31 | O=C(COc1ccc2c(-c3ccccc3)cc(=O)oc2c1)Nc1cccnc1 | -0.2% | 16.7% | 0.5% | 2.4% | -27.5% |
| 32 | CCOC(=O)N1CCc2c(sc(NC(=O)c3ccc(S(=O)(=O)N4CCCC4)cc3)c2C#N)C1 | 0.9% | -3.4% | -28.0% | -6.5% | 12.5% |
| 33 | CC1(c2ccc3ccccc3c2)NC(=O)N(CC(=O)N2CCN(Cc3ccccc3)CC2)C1=O (stereo not given) | 2.7% | 1.2% | ? | / | -3.0% |

| no. | Nrf2 block | FLuc counter 3 | A549 tox-2 | Nrf2 ARE inh |
| --- | --- | --- | --- | --- |
| 21 | ? | / | / | / |
| 22 | 7.31µM* | 2.6% | -2.5% | ? |
| 23 | / | / | / | / |
| 24 | 9.2µM* | ? | -18.9% | ? |
| 25 | 3.66µM* | ? | -11.8% | 18.4µM* |
| 26 | ? | / | / | / |
| 27 | 3.1% | / | / | / |
| 28 | / | / | / | / |
| 29 | -3.5% | / | / | / |
| 30 | 9.2µM* | ? | -11.2% | 3.66µM* |
| 31 | 2.31µM* | -16.8% | -6.0% | 1.84µM* |
| 32 | 7.31µM* | -28.1% | -29.3% | 7.31µM* |
| 33 | 1.3µM* | 2.4% | -5.4% | 4.61µM* |

ClpP mod, hit marks shown above.
# | Compound | Nrf2 ARE act | p53 reactivation | miR-21 reporter | ClpP mod | Nrf2 block | Nrf2 ARE inh
6 | COc1ccc(NS(=O)(=O)c2ccc(NC(=O)c3ccc(N(C)S(C)(=O)=O)cc3)cc2)c(OC)c1 | 1.7% | -9.4% | 6.5% | 25.1µM* | 1.84µM* | 2.59µM*

Screen by screen, as entered above.
ClpP mod for entries 22 to 33 → -0.3%, 1.4%, 0.0%, -7.8%, 1.1%, -3.2%, -0.3%, /, -1.2%, -27.5%, 12.5%, -3.0%
Nrf2 ARE act for entries 22 to 33 → 0.1%, 2.0%, -0.4%, 6.5%, 0.3%, 0.5%, 3.0%, -0.6%, -1.7%, -0.2%, 0.9%, 2.7%
